Experimental data as given in patent US6730296B1.

By UniProt entry, the sequences of proteins in these tests, tags left out.
UniProt P61073, whole entry: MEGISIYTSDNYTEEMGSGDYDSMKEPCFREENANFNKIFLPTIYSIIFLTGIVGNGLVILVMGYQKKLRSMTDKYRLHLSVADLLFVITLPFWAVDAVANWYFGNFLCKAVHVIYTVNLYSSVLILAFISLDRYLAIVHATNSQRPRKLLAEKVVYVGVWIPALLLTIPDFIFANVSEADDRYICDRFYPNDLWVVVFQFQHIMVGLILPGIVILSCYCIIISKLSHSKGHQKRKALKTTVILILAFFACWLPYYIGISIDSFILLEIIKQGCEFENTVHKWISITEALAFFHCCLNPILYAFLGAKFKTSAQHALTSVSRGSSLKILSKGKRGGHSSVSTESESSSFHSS

Target: fusin/CXCR4 receptor (human) (UniProt P61073)

Binder	anti-fusin antibody staining of Jurkat cells after 3-hour incubation at 37 degrees C, Median Channel (Median Channel)
SDF-1α-Fc chimeric polypeptide encoded by S1-2 and S1-3 (Fc fusion) DGKPVSLSYRCPCRFFESHVARANVKHLKILNTPNCALQIVARLKNNNRQVCIDPKLKWIQEYLEKALNKGSGSGSGSGSESKYGPPCPSCPAPEFEGAPSVFLFPPKPKDTLMISRTPEVTCVVVDVSQEDPEVQFNWYVDGVEVHNAKTKPREEQFNSTYRVVSVLTVLHQDWLNGKEYKCKVSNKGLPSSIEKTISKAKGQPREPQVYTLPPSQEEMTKNQVSLTCLVKGFYPSDIAVEWESNGQPENNYKTTPPVLDSDGSFFLYSRLTVDKSRWQEGNVFSCSVMHEALHNHYTQKSLSLSLGK	20
SDF-1α-Fc chimeric polypeptide encoded by SK2-2 (Fc fusion) KPVSLSYRCPCRFFESHVARANVKHLKILNTPNCALQIVARLKNNNRQVCIDPKLKWIQEYLEKALNKGSGSGSGSGSESKYGPPCPSCPAPEFEGAPSVFLFPPKPKDTLMISRTPEVTCVVVDVSQEDPEVQFNWYVDGVEVHNAKTKPREEQFNSTYRVVSVLTVLHQDWLNGKEYKCKVSNKGLPSSIEKTISKAKGQPREPQVYTLPPSQEEMTKNQVSLTCLVKGFYPSDIAVEWESNGQPENNYKTTPPVLDSDGSFFLYSRLTVDKSRWQEGNVFSCSVMHEALHNHYTQKSLSLSLGK	22
